According to patent US20220142941A1, “COMBINATION THERAPEUTIC REGIMENS WITH 1,6-DIBROMO-1,6-DIDEOXY-DULCITOL” (Eleison Pharmaceuticals LLC, priority 2019, published 2022):

Legend:
Assay in all cases: DBD combination treatment, viability enhancement factor
Assay type in all cases: cell-based, human
[1] = test system: GS289NS;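 further: DBD at its own IC50 and half IC50 determined at Day 5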
Procedure: (§1) Crystalline DBD polymorph treatment was combined with chemotherapy, radiotherapy and targeted inhibitors to determine whether the crystalline DBD polymorph form could: enhance efficacy of the conventional therapies; enhance efficacy when combined with newer ‘targeted’ therapies; or would make (a subset of) cultures more sensitive to this treatment.
(§2) Therefore, cultures were treated with: • a.

[2] = test system: GS281NS
Procedure: as §1, §2

[3] = test system: GS359NS
Procedure: as §1, §2

[4] = test system: GS186periNS
Procedure: as §1, §2

[5] = test system: GS257NS;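 further: DBD at its own IC50 and half IC50 determined at Day 5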
Procedure: as §1, §2

[6] = test system: GS324coreNS
Procedure: as §1, §2

[7] = test system: GS261NS
Procedure: as §1, §2

[8] = test system: GS279periNS;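 further: DBD at its own IC50 and half IC50 determined at Day 5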
Procedure: as §1, §2

[9] = test system: GS365NS
Procedure: as §1, §2

[10] = test system: GS279coreNS
Procedure: as §1, §2

[11] = test system: GS184NS;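 further: DBD at its own IC50 and half IC50 determined at Day 5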
Procedure: as §1, §2

[12] = test system: GS323periNS
Procedure: as §1, §2

[13] = test system: GS104periNS
Procedure: as §1, §2

[14] = test system: GS102periNS
Procedure: as §1, §2

[15] = test system: GS224NS
Procedure: as §1, §2

[16] = test system: GS245NS
Procedure: as §1, §2

[17] = test system: GS249NS
Procedure: as §1, §2

CC(C)C[C@H](NC(=O)[C@H](Cc1ccccc1)NC(=O)c1cnccn1)B(O)O [Bortezomib]
enhancement factor (viability % of most effective monotherapy divided by viability % of combination) [1]: 0.870 and 1.664 | enhancement factor (viability % of most effective monotherapy divided by viability % of combination) [2]: 0.826 and 0.892 | enhancement factor (viability % of most effective monotherapy divided by viability % of combination) [3]: 1.940 and 2.420 | enhancement factor (viability % of most effective monotherapy divided by viability % of combination) [4]: 2.614 | enhancement factor (viability % of most effective monotherapy divided by viability % of combination) [5]: 0.970 and 0.978 | enhancement factor (viability % of most effective monotherapy divided by viability % of combination) [6]: 0.962 and 1.028 | enhancement factor (viability % of most effective monotherapy divided by viability % of combination) [7]: 1.567 and 1.676 | enhancement factor (viability % of most effective monotherapy divided by viability % of combination) [8]: 1.265 and 0.961 | enhancement factor (viability % of most effective monotherapy divided by viability % of combination) [9]: 0.919 and 0.939 | enhancement factor (viability % of most effective monotherapy divided by viability % of combination) [10]: 2.252 | enhancement factor (viability % of most effective monotherapy divided by viability % of combination) [11]: 0.542 and 0.639 | enhancement factor (viability % of most effective monotherapy divided by viability % of combination) [12]: 1.060 | enhancement factor (viability % of most effective monotherapy divided by viability % of combination) [13]: 0.984 and 1.374 | enhancement factor (viability % of most effective monotherapy divided by viability % of combination) [14]: 1.481 and 1.518 | enhancement factor (viability % of most effective monotherapy divided by viability % of combination) [15]: 0.954 and 1.011 | enhancement factor (viability % of most effective monotherapy divided by viability % of combination) [16]: 1.043 | enhancement factor (viability % of most effective monotherapy divided by viability % of combination) [17]: 1.013 and 0.952

Values joined by “and” are separate entries in the source; they are usually repeats but may differ in a detail not shown here. Equal values may be shown once.
